pKi: −log10 of the molar value.
What was measured:
sEH = sEH (Mus musculus, UniProt P34914); assay: biochemical
[1] = Pharmacokinetics after IV and PO dosing in cats, with allometric scaling; conditions: cat, IV 1.0 mg/kg, individual animals

Chains of the proteins cited; added tags and fusions are not shown. Lines headed by an entry give the natural chain unless they say otherwise; changes in a name come on top.
UniProt P34914: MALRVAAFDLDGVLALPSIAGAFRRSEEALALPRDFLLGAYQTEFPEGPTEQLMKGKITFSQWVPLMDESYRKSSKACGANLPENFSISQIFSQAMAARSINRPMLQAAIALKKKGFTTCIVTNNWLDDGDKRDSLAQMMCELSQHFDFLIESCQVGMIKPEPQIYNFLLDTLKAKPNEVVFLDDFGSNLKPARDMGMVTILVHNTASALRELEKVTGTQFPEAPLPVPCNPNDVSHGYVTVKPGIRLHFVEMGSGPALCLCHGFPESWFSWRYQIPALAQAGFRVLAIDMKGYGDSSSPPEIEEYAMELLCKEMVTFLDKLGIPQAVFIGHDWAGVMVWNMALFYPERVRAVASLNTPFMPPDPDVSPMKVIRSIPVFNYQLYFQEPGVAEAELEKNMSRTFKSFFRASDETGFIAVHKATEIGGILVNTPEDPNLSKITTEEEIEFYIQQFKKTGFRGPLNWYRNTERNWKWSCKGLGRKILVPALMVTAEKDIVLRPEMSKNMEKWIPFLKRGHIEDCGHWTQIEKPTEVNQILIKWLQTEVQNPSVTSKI

Work on CC(=O)N1CCC(NC(=O)NC23CC4CC(CC(C4)C2)C3)CC1 [AR9281] yielded a pKi (sEH) of 8.06.

Molecule O=C(Nc1ccc(OC(F)(F)F)cc1)N[C@H]1CC[C@H](Oc2ccc(C(=O)O)cc2)CC1 [EC1728] has a Kel [1] of 0.03 h⁻¹.

Source: article PMC8399023 (Molecules, 2021)
